Target: DP-IV (Homo sapiens, UniProt P27487)
Assay: DP-IV activity colorimetric assay (Gly-Pro-4-NA hydrolysis, 405 nm) in human plasma
Settings: Concentration for 50% inhibition of DPIV, isolated flavonol-glycosides tested at 100-500 μg/ml; estimated

Protein sequences, listed by entry. Tags and fused reporters are not part of them. Residues count along the entry.
UniProt P27487, 39-766 limits assumed: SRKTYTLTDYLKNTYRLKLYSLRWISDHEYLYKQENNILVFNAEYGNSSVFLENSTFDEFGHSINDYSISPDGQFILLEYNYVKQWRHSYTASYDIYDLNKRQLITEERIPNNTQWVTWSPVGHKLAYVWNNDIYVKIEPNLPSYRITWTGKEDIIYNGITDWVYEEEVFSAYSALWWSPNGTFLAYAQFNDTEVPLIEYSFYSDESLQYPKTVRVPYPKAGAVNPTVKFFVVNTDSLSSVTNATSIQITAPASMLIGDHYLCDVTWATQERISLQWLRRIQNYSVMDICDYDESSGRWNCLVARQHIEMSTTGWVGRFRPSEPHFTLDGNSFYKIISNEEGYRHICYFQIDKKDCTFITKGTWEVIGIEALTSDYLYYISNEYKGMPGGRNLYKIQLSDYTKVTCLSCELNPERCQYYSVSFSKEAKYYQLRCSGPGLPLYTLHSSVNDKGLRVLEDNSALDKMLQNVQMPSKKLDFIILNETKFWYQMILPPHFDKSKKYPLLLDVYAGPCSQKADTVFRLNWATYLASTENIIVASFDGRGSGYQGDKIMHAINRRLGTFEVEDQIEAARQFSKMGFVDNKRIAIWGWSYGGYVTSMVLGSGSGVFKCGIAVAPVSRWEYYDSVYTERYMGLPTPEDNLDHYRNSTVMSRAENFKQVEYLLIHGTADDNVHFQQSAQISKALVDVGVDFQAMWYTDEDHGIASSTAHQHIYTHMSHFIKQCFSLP

Structure (SMILES): O=c1c(O[C@@H]2O[C@H](CO)[C@@H](O)[C@H](O)[C@H]2O)c(-c2ccc(O)c(O)c2)oc2cc(O)cc(O)c12 [compound 4]
- IC50: 900 µM
